The source of these data is patent publication US20230255979A1, “METHODS OF TREATING ACUTE RESPIRATORY DISORDERS” (Bristol-Myers Squibb Company, priority 2020, published 2023).

The chains behind the UniProt entries cited, without tags or fusion partners.
UniProt P49137, whole entry: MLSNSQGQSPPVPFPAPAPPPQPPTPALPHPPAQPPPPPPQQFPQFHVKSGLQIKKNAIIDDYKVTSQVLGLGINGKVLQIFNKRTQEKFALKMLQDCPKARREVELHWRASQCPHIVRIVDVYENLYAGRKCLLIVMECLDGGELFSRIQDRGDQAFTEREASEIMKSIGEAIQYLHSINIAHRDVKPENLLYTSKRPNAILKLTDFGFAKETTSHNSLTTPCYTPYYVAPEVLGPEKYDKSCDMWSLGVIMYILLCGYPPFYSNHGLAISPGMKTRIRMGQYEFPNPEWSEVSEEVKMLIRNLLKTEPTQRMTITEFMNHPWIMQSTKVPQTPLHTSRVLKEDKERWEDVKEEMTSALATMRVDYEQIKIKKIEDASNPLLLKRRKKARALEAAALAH

The test addresses MK2 (Homo sapiens, UniProt P49137). Conditions: healthy volunteers, oral QD 14 days, 10-150 mg cohorts; FIG. 7.

Consider `CCOCc1cnc(Cl)nc1Oc1ccc2c(ccc3sc4c(c32)NC[C@@H](C)NC4=O)n1` [Compound I-82], for which the “target engagement (change in percent bound MK2 from baseline)” value was “dose-dependent target engagement”.
